Assay results reported in US20040121410A1, “Pain signaling molecules” (priority 2002, published 2004).

Tests used:
MrgC11 = target: T1, MrgC11 (Mus musculus, UniProt Q8CIP3); assay: calcium-mobilization assay (FLEXstation, Fura-2/AM) in HEK-MrgC11 cells; assay type: cell-based
T1 construct: A full-length MrgC11 cDNA was cloned from the newborn DRG cDNA library; expressed in transfected cells
T1 sequence (Q8CIP3 1-322): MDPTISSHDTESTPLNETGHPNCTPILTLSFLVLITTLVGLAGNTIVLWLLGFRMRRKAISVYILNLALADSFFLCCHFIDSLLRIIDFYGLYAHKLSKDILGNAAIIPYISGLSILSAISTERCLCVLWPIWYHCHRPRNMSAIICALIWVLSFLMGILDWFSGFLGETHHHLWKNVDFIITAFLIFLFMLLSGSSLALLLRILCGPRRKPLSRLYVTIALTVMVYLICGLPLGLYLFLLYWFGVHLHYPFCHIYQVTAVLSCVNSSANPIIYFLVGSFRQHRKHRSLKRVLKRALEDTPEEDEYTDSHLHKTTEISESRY
Protocol: (§1) To address the questions of the ligand selectivity of the MrgC11 receptor, human embryonic kidney (HEK) 293 cells stably expressing either MrgA1 or MrgC11 were established. Neuropeptides were screened to identify ligands and agonists.
(§2) HEK293 cells were transfected with cDNA encoding the MrgAl-GFP, mNPFF2-GFP or MrgC11-GFP in pcDNA3.1/Zio(+) plasmid (Invitrogen) using the FuGENE6 transfection reagent (Roche Molecular Biomolecules). The transfected cells were selected with 400 μg/ml zeocin in DMEM supplemented with 10% FBS. Each cloned cell was further selected for membrane localization of receptor-GFP fusion protiens.
(§3) The selected cells were maintained in the same medium supplemented with 200 μg/ml zeocin. The stable cell lines were designated HEK-MrgA1, HEK-NPFF2 and HEK-MrgC11.
(§4) To identify putative ligands for MrgC11 and MrgA1 receptors, HEK-MrgC11 or HEKMrgA1 stable cell lines were screened in a calcium-mobilization assay using a fluorescence-imaging plate reader (FLEXstation). Briefly, HEK-MrgA1 or HEK-MrgC11 were plated in 96-black-well plates (Corning) and grown to confluence. After incubation with Fura-2/AM for >20 min, cells were washed and equilibrated for 20 min with HBSS (Hanks' balanced salt solution) assay buffer. The fluorescence emission caused by intracellular calcium mobilization elicited by agonists was determined by using a fluorometric imaging plate reader, Flexstation (Molecular Devices). All peptides were from Phoenix Pharmaceuticals (St. Joseph, Mo.), Bachem, American Peptide (Sunnyvale, Calif.), or Sigma.

MrgA1 [1] = target: T2, MrgA1 (Mus musculus, UniProt Q91WW5); assay: calcium-mobilization assay (FLEXstation, Fura-2/AM) in HEK-MrgA1 cells; assay type: cell-based; parameters: expressed in transfected cells
T2 sequence (Q91WW5 1-304): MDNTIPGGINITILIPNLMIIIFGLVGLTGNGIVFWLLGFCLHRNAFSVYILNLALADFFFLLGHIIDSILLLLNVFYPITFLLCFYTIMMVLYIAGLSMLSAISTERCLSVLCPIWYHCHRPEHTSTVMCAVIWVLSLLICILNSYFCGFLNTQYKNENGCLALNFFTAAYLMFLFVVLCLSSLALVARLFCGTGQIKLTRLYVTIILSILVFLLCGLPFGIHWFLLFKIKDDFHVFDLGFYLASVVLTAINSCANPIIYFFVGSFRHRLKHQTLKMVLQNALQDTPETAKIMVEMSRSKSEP
Protocol: as §1, §2, §3, §4

MrgA1-GFP [2] = target: T3, MrgA1-GFP (Mus musculus, UniProt Q91WW5); assay: agonist-induced internalization of MrgA1-GFP; assay type: cell-based; parameters: expressed in transfected cells
T3 sequence (Q91WW5 1-304): T2 sequence (Q91WW5 1-304)
Protocol: FIGS. 3A and C show serum starved (>4 hr) HEK-MrgA1 and HEK-MrgC11 cells. FIGS. 3B and D show HEK-MrgA1 or HEK-MrgC11 treated with the indicated agonists for 30 minutes at 37° C. Results are representative of three independent experiments, and the arrow indicates the internalization process.
The ability of agonists to induce the internalization of MrgA1 or MrgC11 was measured., as receptor internalization is a response of GPCRs to ligand stimulation.
Briefly, MrgC11-GFP or MrgA1-GFP stably expressing HEK293 cells were grown in 35 mm glass-bottomed dishes (Mat-Tek, Ashland, Mass.) in DMEM with 10% FBS. After 4-6 hours of serum starvation, cells were treated with agonists at 37° C. for 30 minutes. Cells were washed with PBS and fixed with 3.7% paraformaldehyde in PBS. The subcellular localization of Mrg-GFP was visualized under a Leica confocal fluorescence microscope with a ×20 or ×40 lens.

MrgA1 [3] = target: T2, MrgA1; assay: cAMP production in HEK-MrgA1 (radioimmuno assay); assay type: cell-based; parameters: expressed in transfected cells
Text: (§5) FIGS. 4A-F show the heterotrimeric G protein coupling of MrgA1 and MrgC11. […] All results shown are the mean of triplicate determination ±SEM. FIGS. 4B and E show the effect of Gα subunit KO on [Ca^2+]i mobilizatoin. KO MEFs were derived from KO mice at embryonic 8.5 and 9.5 days. Gα12/13 KO MEF (closed triangle) and Gαq/11 KO MEF (open circles) were transfected with the cDNAs encoding the MrgA1-GFP (FIG. 4B) or MrgC11-GFP (FIG. 4E). […] Positively transfected cells were selected by their green fluorescence excited at 480 nm (GFP-positive cells). […] FIGS. 4C and F show cAMP production in HEK-MrgA1 (FIG. 4C) or HEK-MrgC11 (FIG. 4F). Cells were stimulated with various concentrations of FLRFa or γ2-MSH in the presence or absence of 10 μM forskolin. Each value represents the mean ±SEM for three independent experiments.
It is also possible that these receptors are coupled to the Gαi/o or to the Gαs family of heterotrimeric G proteins. Thus, cAMP production was measured in the presence of varioys concentrations of agonists and presence or absence of forskolin.
A radioimmuno assay kit (Amersham Pharmacia) was used to measure cAMP. HEK-MrgA1 or HEK-MrgC11 were cultured in 6-well plates coated with matriGel for ˜26 h at 37° C. in growth medium. […] Quantitation of cAMP was then performed byusing a [^3H] cAMP displacement assay as described in Gilman et al. (Proc. Natl. Acad. Sci. USA 67:305-312 (1970)).

MrgA1 [4] = target: T2, MrgA1; parameters: host or cells: HEK293 cells expressing Gα15 (transient overexpression); details: transiently overexpressed MrgA1, HEK293 cells expressing Gα15; previously reported; cited from earlier work
MrgA1-GFP [5] = target: T3, MrgA1-GFP; assay: single-cell calcium assay in Gα KO MEFs transfected with MrgA1-GFP; assay type: cell-based; parameters: expressed in transfected cells; host or cells: Gαq/11 KO or Gα12/13 KO mouse embryonic fibroblasts (MEFs)
Text: as §5
Wild type and Ga knockout (KO) mouse embryonic fibroblasts (MEFs) were prepared and cultured from embryonic day 8.5 to 9.5 embryos as described in Kabarowski et al. (Proc. Natl. Acad. Sci. USA 97:12109-12114 (2000)). HEK293 and Ga KO MEFs were cultured in DMEM/10% FBS. U73122, U73343 and thapsigargin (TG) were purchased from Calbiochem. Fura-2/AM was purchased from Molecular Probes. All other reagents were from Sigma.
MEF cell lines derived from Gαq/11 or Gα12/13 double gene KO mice were used to test whether activation of MrgA1 or MrgC11 receptors can mobilize calcium responses through the direct participation of Gαq/11. The Gαq/11 KO MEFs or Gα12/13 KO MEFs were transfected with cDNAs encoding either MrgA1-GFP or MrgC11-GFP receptor, and the ability of agonists to increase [Ca^2+]i was measured in individual cells. The GFP receptor fusion proteins were used to identify positively transfected cells, and single-cell calcium assays were performed as described in Dong et al., supra. […] By using a dual wavelength spectrofluorometer coupled to an inverted fluorescence microscope, GFP-positive cells were identified by using an excitation wavelength of 488 nm, a dichroic 505 nm long-pass filter, and an emitter filter at a band pass of 535 nm (Chroma Technology, Brattleboro, Vt.). […]

[6] = Table 1, HEK-MrgC11 cells, FLEXstation assay, means ± SEM, triplicate, Inactive = no activation detected at concentrations up to 10 mM, read-out: EC50 MrgC11
[7] = Table 1, HEK-MrgA1 cells, FLEXstation assay, means ± SEM, triplicate, Inactive = no activation detected at concentrations up to 10 mM, read-out: EC50 MrgA1

## CC(C)C[C@H](NC(=O)[C@@H](N)Cc1ccccc1)C(=O)N[C@@H](CCCNC(=N)N)C(=O)N[C@@H](Cc1ccccc1)C(N)=O [FLRF-amide]
MrgC11; [6]
  EC50: 157 ± 12 nM
MrgA1 [1]; [7]
  EC50: 402 ± 21 nM
MrgA1-GFP [2]; 3 μM FLRFa, 30 minutes at 37° C.
  cells with internalization of MrgA1-GFP: > 90 % of cells
MrgA1-GFP [2]; room temperature, same conditions
  rapid internalization of MrgA1-GFP: not observed
MrgA1 [3]; HEK-MrgA1, 10 μM forskolin
  forskolin-induced cAMP accumulation: unable to inhibit
MrgA1 [3]; HEK-MrgA1, various concentrations, 10 minutes
  cAMP production: No significant inhibition or activation
MrgA1 [4]
  EC50: ~20 nM
MrgA1-GFP [5]; Gα12/13 KO MEF
  calcium response, MrgA1: robust, transient calcium responses
MrgA1-GFP [5]; Gαq/11 KO MEF cotransfected with wild-type Gαq
  calcium response, MrgA1: rescued; also recorded: restored responsiveness
MrgA1-GFP [5]; Gαq/11 double KO MEF
  calcium response, MrgA1: failed to respond; also recorded: completely abrogated

## CSCC[C@H](NC(=O)[C@@H](N)Cc1ccccc1)C(=O)N[C@@H](CCCNC(=N)N)C(=O)N[C@@H](Cc1ccccc1)C(=O)O [FMRF-OH]
MrgC11
  EC50: 544 ± 117 nM
MrgA1 [1]
  EC50: 8200 nM
MrgA1 [1]; relative to the parent peptide, modification named in the text (deamidation, D-isomer)
  fold decrease in activity for MrgA1: ~20 fold

## CSCC[C@H](NC(=O)[C@@H](N)Cc1ccccc1)C(=O)N[C@@H](CCCN=C(N)N)C(=O)N[C@@H](Cc1ccccc1)C(N)=O [FMRF-amide]
MrgC11; [6]
  EC50: 114 ± 32 nM
MrgA1 [1]; [7]
  EC50: 420 ± 71 nM

## N=C(N)NCCC[C@H](NC(=O)[C@H](CCC(N)=O)NC(=O)[C@@H]1CCCN1)C(=O)N[C@@H](Cc1ccccc1)C(N)=O [PQRF-amide]
MrgC11; [6]
  EC50: 126 ± 28 nM
MrgA1 [1]; [7]
  EC50: > 10000 nM

“Also recorded” adds a separate entry of the source. Like-named read-outs stand apart in the source and are kept apart here.
